These are literature values, as cited in US8629110B2, “Kv1.3 channel blocking substances for the treatment of diseases associated with intimal hyperplasia” (priority 2008, dated 2014).

By UniProt entry, the sequences of proteins in these tests, tags left out.
UniProt P22001, whole entry: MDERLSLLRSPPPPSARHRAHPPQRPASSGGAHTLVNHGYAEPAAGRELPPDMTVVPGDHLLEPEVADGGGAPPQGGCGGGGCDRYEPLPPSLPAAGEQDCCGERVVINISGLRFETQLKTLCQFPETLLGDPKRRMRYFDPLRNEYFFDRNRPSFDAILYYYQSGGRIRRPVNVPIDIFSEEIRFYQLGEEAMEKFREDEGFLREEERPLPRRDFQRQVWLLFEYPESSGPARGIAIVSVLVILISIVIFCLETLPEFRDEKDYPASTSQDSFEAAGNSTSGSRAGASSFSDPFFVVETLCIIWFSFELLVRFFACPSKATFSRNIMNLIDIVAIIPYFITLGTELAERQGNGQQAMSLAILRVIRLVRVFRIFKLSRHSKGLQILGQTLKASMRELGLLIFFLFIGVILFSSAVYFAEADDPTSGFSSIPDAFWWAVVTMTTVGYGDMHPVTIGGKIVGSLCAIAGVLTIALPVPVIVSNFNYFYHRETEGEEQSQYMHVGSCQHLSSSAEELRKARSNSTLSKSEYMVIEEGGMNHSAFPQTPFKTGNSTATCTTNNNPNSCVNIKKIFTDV

The data set has as its target Kv1.3 channel (Homo sapiens, UniProt P22001). As to conditions: read-out: Affinity (Kd); cited from earlier work.

In the case of `CCCN=c1ccn(Cc2ccccc2)c2cc(Cl)ccc12`, the Kd was 200 nM.
